# Patent publication US9273364B2 (Kyoto University, priority 2010, dated 2016)
# Test system: alternative splicing of a specific gene (GFP/RFP reporter)
# Experiment: Compound screen with GFP/RFP alternative splicing reporter
# Type: cell-based
# Conditions: 5 µg/ml
# Description: Strategy of a method for testing whether or not a compound to be tested affects an alternative splicing of a specific gene in a mammalian multicelluar organism is shown in FIG. 14.
# The reporter proteins used for the method are GFP and FRP.
smiles,measurement,value
Cc1nc2n(c(=O)c1CCN1CCC(c3noc4cc(F)ccc34)CC1)CCCC2 [Risperidone],"cell count per well (c9; column head not printed in these continuation tables, meaning inferred)",3677
